From patent US20240293333A1, “TOPICAL DELIVERY OF LIPOPROTEIN-MIMETIC NANOPARTICLES” (published 2024)

Test system: mouse skin
Test: Nitrogen mustard skin injury, skin thickness

C=C1/C(=C\C=C2/CCC[C@]3(C)[C@@H]([C@H](C)CCCC(C)(C)O)CC[C@@H]23)C[C@@H](O)C[C@@H]1O
Percent Increase in Skin Thickness (Day 5) (set 100 nM HDL-NP / 0.075 mg calcitriol per mouse per day, topical Days 0-3, relative to Day 0 (PBS 398%)): 345%
Percent Increase in Skin Thickness (Day 5) (set 150 nM HDL-NP / 0.1 mg calcitriol per mouse per day, topical Days 0-3, relative to Day 0 (PBS 353%)): 301%
Percent Increase in Skin Thickness (Day 5) (set 250 nM HDL-NP / 0.19 mg calcitriol per mouse per day, topical Days 0-3, relative to Day 0 (PBS 406%)): 310%
Percent Increase in Skin Thickness (Day 5) (set 750 nM HDL-NP / 0.56 mg calcitriol per mouse per day, topical Days 0-3, relative to Day 0 (PBS 402%)): 288%
